Results on 1 molecule are retold here after patent EP0695746A2, “Antiviral compounds and pharmaceutical compositions” (PHARMA MAR, S.A., priority 1994, dated 1996).

For the assay, the system named is HIV-1 RF. Description: Syncytium-forming assay (Syncytia assay), antiviral activity. The format is cell-based. An excerpt:
To determine the HIV-1 viral titers the quantitative infectivity syncytium-forming assay described by P.L. Nara and P.J. Fischinger, "Quantitative Infectivity Assay for HIV-1 and -2," Nature, 332: 469 (1988)) was used. In this assay a single infectious unit of virus infects a single cell and initiates a focal cell change such as syncytium formation. Because a single infectious unit causes a single response, a linear relationship exists between the number of cytopathic effects caused by viral infection and the first order of virus concentration. This quantitative assay can be used to determine the titers of the HIV-1 in viral stocks, neutralization tests, and antiviral assays.
The quantitative infectivity syncytium-forming assay is applied for the direct quantitation of fusigenic virus-infected cells. CEM-SS cells were used for the syncytium-forming assay. CEM-SS cell are human T4-lymphoblastoid cells of a cell line initially derived by G.E. Foley, et al., "Continuous Culture to Human Lymphoblasts from Peripheral Blood of a Child with Acute Leukemia," Cancer, 18: 522 (1965) and biologically cloned by Nara et al., supra. The cells for this assay were provided by Dr. Nara.
CEM-SS cells were maintained in a growth medium of RPMI 1640, 10% fetal bovine serum, 1% L-glutamine (200 mM) and 50 µg/ml of gentamicin. CEM-SS cells grow in suspension. The cells have been cloned for both poly-L-lysine-induced adherence to microtiter plates and virus-induced syncytial and fusogenic sensitivity following infection with either cell-free or cell-associated HIV-1 and HIV-2. It has been determined that the cells are negative for virus including human retroviruses as determined by electron microscopy and reverse transcriptase analysis.
A.4.1. Use 96-wells flat bottom tissue culture plates and score the bottoms of all wells into 4 quadrants. A.4.2. Add 50 µl/well of diluted poly-L-lysine. Prepare stock poly-L-lysine (Poly-L-lysine hydrobromide, Sigma catalog, cat. # P-1399) at 5 mg/ml and store at -20°C for future use. For the assay dilute the stock poly-L-lysine 1:100 using phosphate buffered saline (PBS). A.4.3. Incubate plates at room temperature for no less than 30 minutes. A.4.4. Remove poly-L-lysine from wells. A.4.5. Wash the plates with 100 µl/well of Dulbecco's PBS and remove the excess PBS. A.4.6. Dilute CEM-SS cells in a logarithmic state of growth to 0.5 x 10⁶ cells per ml in a serum free medium and add 1 µg/ml polybrene. Incubate the cell suspension at 37°C for 60 minutes. Centrifuge at 800 rpm for 10 minutes and decant the supernatant fluid. A.4.7. Dilute the treated CEM-SS cell suspension to 5.0 x 10⁵ cells. Add 100 µl to the test wells so that the final cell concentration is 50,000 cells per well. Make ten-fold dilutions of the viral stock. Add 50 µl to the test wells. […]

Regarding `CC1(C)CCC[C@@]2(C)[C@H](c3ccoc3)C(=O)[C@H]3O[C@@]312` (racemic) [PM-92131 (±)], the SI (Table II, Syncytia Assay, listed as PM-92131 (±) (253-48)) stood at 18; the SI (Table II, Syncytia Assay, listed as PM-92131 (±) (289-8)) is recorded as above 42; the SI (Table III, Syncytia Assay (M.O.I. = .005), listed as PM-92131 (±) (253-48)) was found to be 21; the SI (Table III, Syncytia Assay (M.O.I. = .005), listed as PM-92131 (±) (289-8)) is above 42.
